Experiment: Stability study: histidine challenge, radiochemical composition by HPLC on RP18 column
Format: physicochemical
Conditions: 20 mg of histidine, stirred 1 hour at 50° C.
Protocol: The complexes are stable, so that at room temperature, no exchange of chelating agents for histidine is carried out. The. chelates and tricarbonyl-Tc-99m and Re-tricarbonyl complexes that are described in this invention are thus clearly better suited for diagnostic and therapeutic purposes than the previously known systems. A special advantage of the compounds according to the invention consists in the fact that their syntheses can be directed without using sulfur protective groups. This makes their synthesis very simple, and in addition, such compounds that are described according to the invention in particular offer the advantage that after radiochemical labeling, no further foreign molecules are contained in the solutions that are to be administered intravenously for radiodiagnosis or radiotherapy. Such foreign molecules frequently disrupt the biodistribution of the radiopharmaceutical agent and can adversely affect the diagnostic information content of the SPECT imaging. In addition, the labelings on such ligands or their coupling products can be performed on substances that accumulate selectively on diseased tissues under very mild conditions. […]

radiochemical composition (HPLC chromatogram) after histidine challenge: unchanged
Substance: Tc-99m-Tricarbonyl Complex of N,N-bis-(2-methylthioethyl)-glycine-N′-propylamide [Example 9b]
